Experimental data: patent US9072794B2 (HANMI SCIENCE CO., LTD, priority 2010, dated 2015)

Test system: diet-induced obesity (DIO) mice
Test: Co-administration of native glucagon with long-acting exendin-4 conjugate in DIO mice
Type: in vivo

With `CSCC[C@H](NC(=O)[C@H](CC(C)C)NC(=O)[C@H](Cc1c[nH]c2ccccc12)NC(=O)[C@H](CCC(N)=O)NC(=O)[C@@H](NC(=O)[C@H](Cc1ccccc1)NC(=O)[C@H](CC(=O)O)NC(=O)[C@H](CCC(N)=O)NC(=O)[C@H](C)NC(=O)[C@H](CCCN=C(N)N)NC(=O)[C@H](CCCN=C(N)N)NC(=O)[C@H](CO)NC(=O)[C@H](CC(=O)O)NC(=O)[C@H](CC(C)C)NC(=O)[C@H](Cc1ccc(O)cc1)NC(=O)[C@H](CCCCN)NC(=O)[C@H](CO)NC(=O)[C@H](Cc1ccc(O)cc1)NC(=O)[C@H](CC(=O)O)NC(=O)[C@H](CO)NC(=O)[C@@H](NC(=O)[C@H](Cc1ccccc1)NC(=O)[C@@H](NC(=O)CNC(=O)[C@H](CCC(N)=O)NC(=O)[C@H](CO)NC(=O)[C@@H](N)Cc1c[nH]cn1)[C@@H](C)O)[C@@H](C)O)C(C)C)C(=O)N[C@@H](CC(N)=O)C(=O)N[C@H](C(=O)O)[C@@H](C)O` [native glucagon, glucagon] the “fluctuation in blood glucose level” value (DIO mice, native glucagon 200 μg/kg BID co-administered with long-acting exendin-4 conjugate 20 μg/kg once a week, FIG. 5) was “severe fluctuation” and the “toxicity in test animals” value (native glucagon (once a day) co-administered with long-acting exendin-4 conjugate (once a week)) was “toxicity”.
